Assay results published in EP0302824A2 (priority 1987, dated 1989).

Test system: larvae of the banded cucumber beetle (Diabrotica balteata)
Assay: Seed applied insecticides against banded cucumber beetle larvae on potted maize
Assay type: in vivo
Settings: maize G 4733, 10 g/kg seed; for Scores of damage caused by D. balteata larvae: 0-6 scale
[1] = Association Polymer, 94% Sand, plant age 3 w
[2] = Association Polymer, 94% Sand, plant age 4 w
[3] = Association Polymer, 98% Sand, plant age 3 w
[4] = Association Polymer, 98% Sand, plant age 4 w
[5] = Association Polymer, Stein Earth, plant age 3 w
[6] = Association Polymer, Stein Earth, plant age 4 w
[7] = PVAc/PVAl, 94% Sand, plant age 3 w
[8] = PVAc/PVAl, 94% Sand, plant age 4 w
[9] = PVAc/PVAl, 98% Sand, plant age 3 w
[10] = PVAc/PVAl, 98% Sand, plant age 4 w
[11] = PVAc/PVAl, Stein Earth, plant age 3 w
[12] = PVAc/PVAl, Stein Earth, plant age 4 w

CCOP(=S)(CC)Sc1ccccc1 (stereo not drawn)
Scores of damage caused by D. balteata larvae [1]: 1.4 | Scores of damage caused by D. balteata larvae [2]: 3.2 | Scores of damage caused by D. balteata larvae [3]: 2.0 | Scores of damage caused by D. balteata larvae [4]: 1.0 | Scores of damage caused by D. balteata larvae [5]: 3.0 | Scores of damage caused by D. balteata larvae [6]: 2.6 | Scores of damage caused by D. balteata larvae [7]: 4.3 | Scores of damage caused by D. balteata larvae [8]: 2.8 | Scores of damage caused by D. balteata larvae [9]: 3.2 | Scores of damage caused by D. balteata larvae [10]: 2.5 | Scores of damage caused by D. balteata larvae [11]: 3.6 | Scores of damage caused by D. balteata larvae [12]: 3.8 | Percent survival of D. balteata larvae [1]: 2% | Percent survival of D. balteata larvae [2]: 12% | Percent survival of D. balteata larvae [3]: 0% | Percent survival of D. balteata larvae [4]: 4% | Percent survival of D. balteata larvae [5]: 3% | Percent survival of D. balteata larvae [6]: 0% | Percent survival of D. balteata larvae [7]: 3% | Percent survival of D. balteata larvae [8]: 18% | Percent survival of D. balteata larvae [9]: 1% | Percent survival of D. balteata larvae [10]: 2% | Percent survival of D. balteata larvae [11]: 6% | Percent survival of D. balteata larvae [12]: 5%
